The numbers were not newly measured in PubChem BioAssay AID977611, which cites them from elsewhere.

Usually Kd stands for the concentration at which binding is half-saturated.

Holding throughout (test): PubChem AID 977611
For series [1], the target named is trypsin beta. The settings on record: PDB protein-ligand complexes, literature Kd, protein: trypsin beta.
Series [2] concerns the target carbonic anhydrase ii. The settings on record: PDB protein-ligand complexes, literature Kd, protein: carbonic anhydrase ii.
Series [3] has as its target Phenylethanolamine N-methyltransferase, PNMT. To be noted: PDB protein-ligand complexes, literature Kd, protein: Phenylethanolamine N-methyltransferase, PNMT.
The target of series [4] is Galectin-1. The settings on record: PDB protein-ligand complexes, literature Kd, protein: Galectin-1.
Series [5] has as its target Gag-Pol polyprotein (Pr160Gag-Pol). The settings on record: PDB protein-ligand complexes, literature Kd, protein: Gag-Pol polyprotein (Pr160Gag-Pol).
The target in series [6] is Aplysia AChBP. To be noted: PDB protein-ligand complexes, literature Kd, protein: Aplysia AChBP.
The target of series [7] is thymidylate synthase. The settings on record: PDB protein-ligand complexes, literature Kd, protein: thymidylate synthase.
Series [8] has as its target nucleoside diphosphate kinase. The settings on record: PDB protein-ligand complexes, literature Kd; protein: nucleoside diphosphate kinase; PDB entry 1MN9.
Series [9] addresses aspartate aminotransferase. To be noted: PDB protein-ligand complexes, literature Kd, protein: aspartate aminotransferase.
For series [10], the target named is transthyretin. To be noted: PDB protein-ligand complexes, literature Kd, protein: transthyretin.
For series [11], the target named is lysozyme. The settings on record: PDB protein-ligand complexes, literature Kd; protein: lysozyme; PDB entry 1LI3.
Series [12] has as its target Acarbose/maltose binding protein GacH. The settings on record: PDB protein-ligand complexes, literature Kd; protein: Acarbose/maltose binding protein GacH; PDB entry 3K00.
Series [13] has as its target mutator mutt protein. To be noted: PDB protein-ligand complexes, literature Kd, protein: mutator mutt protein.
Series [14] deals with h-2 class i histocompatibility antigen. To be noted: PDB protein-ligand complexes, literature Kd, protein: h-2 class i histocompatibility antigen.
The target in series [15] is anti-methamphetamine single chain Fv. To be noted: PDB protein-ligand complexes, literature Kd, protein: anti-methamphetamine single chain Fv.
The target in series [16] is flavodoxin. To be noted: PDB protein-ligand complexes, literature Kd, protein: flavodoxin.
In series [17] the target is 6-hydroxymethyl-7,8-dihydropterin pyrophosphoki. To be noted: PDB protein-ligand complexes, literature Kd, protein: 6-hydroxymethyl-7,8-dihydropterin pyrophosphoki.

Consider `CC(=O)N1CCN(C(=O)[C@H](Cc2cccc(C(=N)N)c2)NS(=O)(=O)c2ccc3ccccc3c2)CC1`, for which, in series [1] (PDB entry 1K1M), the Kd is 0.04 µM.
With `NS(=O)(=O)c1ccc(CCNC(=S)Nc2ccc(-c3c4ccc(=O)cc-4oc4cc(O)ccc34)c(C(=O)O)c2)cc1`, the Kd in [2] (PDB entry 2F14) was 0.00064 µM.
Consider `N[C@@H](Cc1ccccc1)C(=O)NCCOCCOCCNC(=O)c1ccc(S(N)(=O)=O)cc1`, for which the Kd in series [2] (PDB entry 1CNY) is 0.014 µM.
On to `Clc1ncnc2nc[nH]c12`, for which the Kd in series [3] (PDB entry 3KQO) is 140 µM.
Consider `O=C(O)[C@H](O)[C@@H](O)[C@H](O[C@@H]1O[C@H](CO)[C@H](O)[C@H](O)[C@H]1O)[C@H](O)CO`, for which the dissociation constant Kd in series [4] (PDB entry 3OY8) is 220 µM.
Turning to `N=C(N)c1cccc(C[C@H](NS(=O)(=O)c2ccc3ccccc3c2)C(=O)N2CCNCC2)c1`, the Kd in series [1] (PDB entry 1K1L) was 0.125 µM.
As to `COC(=O)N[C@H](C(=O)N[C@@H](Cc1ccccc1)[C@@H](O)CN(Cc1ccc(-c2ccccn2)cc1)NC(=O)[C@@H](NC(=O)OC)C(C)(C)C)C(C)(C)C`, the Kd in [5] (PDB entry 2O4K) is 0.035 nM.
With `O=c1cc[nH]c2ccccc12`, in series [3] (PDB entry 3KPU), the Kd is 690 µM.
In the case of `CCC[C@@]1(CCc2ccccc2)CC(O)=C([C@H](CC)c2cccc(NS(=O)(=O)c3ccc(C(F)(F)F)cn3)c2)C(=O)O1`, the Kd in [5] (PDB entry 2O4L) is 0.608 nM; in series [5] (PDB entry 2O4N) it was 15 nM; in series [5] (PDB entry 2O4P), 0.019 nM.
`N#Cc1ccc(N(Cc2ccc(OS(N)(=O)=O)c(Br)c2)n2cnnc2)cc1`: in series [2] (PDB entry 1XQ0), the equilibrium dissociation constant (Kd) is 0.454 µM.
For the compound `COC(=O)C1CCN(C(=O)[C@H](Cc2cccc(C(=N)N)c2)NS(=O)(=O)c2ccc3ccccc3c2)CC1`, the Kd in series [1] (PDB entry 1K1J) was 0.028 µM.
As for `COc1ccc(/C=C2\CCCN=C2c2cccnc2)c(OC)c1`, in series [6] (PDB entry 2WNJ), the Kd was 0.33 µM.
Regarding `Nc1ccn([C@H]2C[C@H](O)[C@@H](COP(=O)(O)O)O2)c(=O)n1`, the results for the Kd in series [7] (PDB entry 1NJA), in [7] (PDB entry 1NJC) and in series [7] (PDB entry 1NJE) were 0.49 µM, 2.8 µM and 160 µM, respectively.
Regarding `NC(=O)c1ncn([C@@H]2O[C@H](COP(=O)(O)OP(=O)(O)OP(=O)(O)O)[C@@H](O)[C@H]2O)n1`, the Kd in [8] was 24 µM.
Consider `O=C(O)CCC(=O)O`, for which the Kd in [9] (PDB entry 1CZE) was 2400 µM.
Take `Cc1cn([C@H]2C[C@H](O)[C@@H](COP(=O)(O)O)O2)c(=O)[nH]c1=O`: in series [7] (PDB entry 1TYS), the Kd is 3.27 µM.
Consider `OC[C@H]1O[C@@H](S[C@@H]2O[C@H](CO)[C@H](O)[C@H](O)[C@H]2O)[C@H](O)[C@@H](O)[C@H]1O`, for which the equilibrium dissociation constant (Kd) in series [4] (PDB entry 3OYW) is 78 µM.
For `O=C(O)CCCC(=O)O`, the Kd in series [9] (PDB entry 1CZC) is 1500 µM.
`O=C(O)c1ccccc1Nc1cccc(C(F)(F)F)c1`: the Kd in series [10] (PDB entry 1BM7) was 0.03 µM.
`N=C(N)c1cccc(C[C@H](NS(=O)(=O)c2ccc3ccccc3c2)C(=O)N2CCCC[C@@H]2C(=O)O)c1`: the Kd in series [1] (PDB entry 1K1I) is 0.264 µM.
With `Oc1cccc(Cl)c1`, the dissociation constant Kd in [11] is 56 µM.
On to `OC[C@H]1O[C@@H](O[C@H]2[C@H](O)[C@@H](O)[C@@H](O[C@H]3[C@H](O)[C@@H](O)[C@@H](O[C@H]4[C@H](O)[C@@H](O)[C@@H](O)O[C@@H]4CO)O[C@@H]3CO)O[C@@H]2CO)[C@H](O)[C@H](O)[C@@H]1O`, for which the Kd in [12] was 1.7 µM.
With `Oc1c(Br)cc(Br)cc1Br`, in series [10] (PDB entry 1E5A), the Kd is 0.023 µM.
Consider `O=C(O)/C=C\C(=O)O`, for which the Kd was 440 µM in [9] (PDB entry 1AHY) and 3400 µM in [9] (PDB entry 1TOK).
For the compound `Nc1nc2c([nH]c(=O)n2[C@H]2C[C@H](O)[C@@H](COP(=O)(O)O)O2)c(=O)[nH]1`, the Kd in series [13] (PDB entry 1PPX), in series [13] (PDB entry 1PUN), in series [13] (PDB entry 1PUQ) and in series [13] (PDB entry 1PUS) was 0.052 µM throughout.
In the case of `CC(C)C[C@H](NC(=O)[C@H](C)NC(=O)[C@@H]1CCCN1C(=O)[C@H](Cc1ccc(O)cc1)NC(=O)[C@H](CC(N)=O)NC(=O)CNC(=O)[C@@H]1CCCN1C(=O)[C@H](C)NC(=O)[C@@H](N)Cc1ccccc1)C(=O)O`, the values for the Kd in [14] (PDB entry 1FZK) and in series [14] (PDB entry 1FZO) were 0.004 µM and 0.013 µM, respectively.
On to `Nc1ccc2ncccc2c1`, for which, in series [3] (PDB entry 3KQP), the Kd was 380 µM.
Regarding `Cc1cccc(C)c1OCC(=O)N[C@@H](Cc1ccccc1)[C@@H](O)C[C@H](Cc1ccccc1)NC(=O)[C@H](C(C)C)N1CCCNC1=O`, the Kd in series [5] (PDB entry 2O4S) was 0.031 nM.
As to `CN[C@@H](C)Cc1ccccc1`, in series [15] (PDB entry 3GKZ), the Kd is 0.01 µM.
Turning to `Cc1cc2c(cc1C)N(C[C@H](O)[C@H](O)[C@H](O)COP(=O)(O)O)c1[nH]c(=O)[nH]c(=O)c1N2`, the Kd in [16] (PDB entry 1AG9) was 0.001 µM; in series [16] (PDB entry 1C7E) it was 0.505 µM; in [16] (PDB entry 1CZO) it was 28 µM; in series [16] (PDB entry 1D04), 26 µM.
With `COc1cc(O)ccc1/C=C1\CCCN=C1c1cccnc1`, the Kd in series [6] (PDB entry 2WN9) is 0.003 µM.
Regarding `CN[C@@H](C)Cc1ccc2c(c1)OCO2`, in [15] (PDB entry 3GM0), the Kd was 0.017 µM.
In the case of `Nc1ncnc2c1ncn2[C@@H]1O[C@H](COP(=O)(O)CP(=O)(O)OP(=O)(O)O)[C@@H](O)[C@H]1O`, the figures for the Kd in [17] (PDB entry 1RU1), in series [17] (PDB entry 1RU2) and in series [17] (PDB entry 1TMM) were 18 µM, 0.32 µM and 0.23 µM, respectively.
On to `O=c1ccn([C@H]2C[C@H](O)[C@@H](COP(=O)(O)O)O2)c(=O)[nH]1`, for which the Kd in series [7] (PDB entry 1BP0) was 4 µM; in series [7] (PDB entry 1JMF), 1.7 µM; in [7] (PDB entry 1JMG), 0.85 µM; in series [7] (PDB entry 1JMI), 0.87 µM; in series [7] (PDB entry 1NJB), 1.6 µM; in series [7] (PDB entry 1NJD) it was 2.7 µM. Moreover, the Kd in series [7] (PDB entry 1TSV) is 16 µM; in series [7] (PDB entry 1TSY) it was 11 µM.
For `CC(C)C[C@H](NC(=O)CNC(=O)[C@H](CCC(N)=O)NC(=O)[C@H](Cc1ccc(O)cc1)NC(=O)[C@@H](NC(=O)[C@H](Cc1ccc(O)cc1)NC(=O)CNC(=O)[C@@H](N)CCCN=C(N)N)C(C)C)C(=O)O`, the results for the Kd in [14] (PDB entry 1FZJ) and in series [14] (PDB entry 1FZM) were 0.008 µM and 0.02 µM, respectively.
